Measurements taken from ChEMBL document CHEMBL2407079, “Potent DGAT1 Inhibitors in the Benzimidazole Class with a Pyridyl-oxy-cyclohexanecarboxylic Acid Moiety” (ACS Med Chem Lett, 2013).

Biological target: T1, Diacylglycerol O-acyltransferase 1 (Homo sapiens, UniProt O75907)
T1 sequence (O75907 whole entry): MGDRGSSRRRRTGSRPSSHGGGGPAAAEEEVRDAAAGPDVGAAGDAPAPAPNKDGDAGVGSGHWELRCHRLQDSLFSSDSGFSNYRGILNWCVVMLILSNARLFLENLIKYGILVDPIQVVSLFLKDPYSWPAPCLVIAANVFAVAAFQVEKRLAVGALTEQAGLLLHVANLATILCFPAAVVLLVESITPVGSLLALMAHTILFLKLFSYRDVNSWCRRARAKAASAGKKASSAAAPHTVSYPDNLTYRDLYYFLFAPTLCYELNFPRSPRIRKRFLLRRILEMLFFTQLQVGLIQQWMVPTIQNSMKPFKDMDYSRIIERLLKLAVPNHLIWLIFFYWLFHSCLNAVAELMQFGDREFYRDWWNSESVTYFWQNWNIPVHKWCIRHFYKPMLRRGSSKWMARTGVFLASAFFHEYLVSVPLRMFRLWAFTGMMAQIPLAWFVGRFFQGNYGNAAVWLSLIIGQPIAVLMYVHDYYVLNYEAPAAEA
Test: Inhibition of human DGAT1

Question: For `Cc1ccc2[nH]c(-c3ccc(-c4ccc(O[C@H]5CC[C@@H](C(=O)O)CC5)nc4)nc3)nc2n1`, which IC50 is on record?
Answer: 32 nM

Question: Which IC50 does the source give for `Cc1ccc2[nH]c(-c3ccc(-c4ccc(O[C@H]5CC[C@H](C(=O)O)CC5)nc4)nc3)nc2n1` here?
Answer: 54 nM
